Laboratory results: ChEMBL document CHEMBL1132473, “Inhibition and substrate activity of conformationally rigid vigabatrin analogues with gamma-aminobutyric acid aminotransferase” (J Med Chem, 1999)

Assay: Compound was evaluated for kinetic constant Kcat/Km

k cat/Km: 20.4 m M-1 min-1
SMILES: NCCCC(=O)O
